From patent US20230219906A1, “MACROCYCLIC-2-AMINO-3-FLUORO-BUT-3-ENAMIDES AS INHIBITORS OF MCL-1” (Janssen Pharmaceutica NV, priority 2020, published 2023)

By UniProt entry, the sequences of proteins in these tests, tags left out.
UniProt Q07820, whole entry: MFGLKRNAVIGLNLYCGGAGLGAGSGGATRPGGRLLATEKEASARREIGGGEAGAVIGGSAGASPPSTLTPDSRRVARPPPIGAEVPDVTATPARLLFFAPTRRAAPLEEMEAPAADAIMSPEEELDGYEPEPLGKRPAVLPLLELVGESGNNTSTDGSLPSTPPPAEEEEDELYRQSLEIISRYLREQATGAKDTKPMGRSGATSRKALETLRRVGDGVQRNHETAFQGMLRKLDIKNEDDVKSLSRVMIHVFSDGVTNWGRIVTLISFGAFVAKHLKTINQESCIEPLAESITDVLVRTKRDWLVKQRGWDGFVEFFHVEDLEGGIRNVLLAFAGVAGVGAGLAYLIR

Columns and labels:
[1] = test system: MOLP-8 human multiple myeloma cell line; test: Caspase-Glo 3/7 apoptosis induction assay in MOLP-8 cells; conditions: read-out: MOLP8 AC50; caspase-3/7 activity, 2 hours at 37° C.; averaged over all runs on all batches
Source text: MCL-1 is a regulator of apoptosis and is highly over-expressed in tumor cells that escape cell death. The assay evaluates the cellular potency of small-molecule compounds targeting regulators of the apoptosis pathway, primarily MCL-1, Bfl-1, Bcl-2, and other proteins of the Bcl-2 family. Protein-protein inhibitors disrupting the interaction of anti-apoptotic regulators with BH3-domain proteins initiate apoptosis.
The Caspase-Glo® 3/7 Assay is a luminescent assay that measures caspase-3 and −7 activities in purified enzyme preparations or cultures of adherent or suspension cells. The assay provides a proluminescent caspase-3/7 substrate, which contains the tetrapeptide sequence DEVD. This substrate is cleaved to release aminoluciferin, a substrate of luciferase used in the production of light. Addition of the single Caspase-Glo® 3/7 Reagent in an “add-mix-measure” format results in cell lysis, followed by caspase cleavage of the substrate and generation of a “glow-type” luminescent signal. […]
Cell cultures were maintained between 0.2 and 2.0×10^6 cells/mL. […] The cells were counted and diluted as needed. […]
Compounds were delivered in assay-ready plates (Proxiplate) and stored at −20° C. […] The plates were then sealed and measured after 30 minutes.
The activity of a test compound was calculated as percent change in apoptosis induction as follows: […]

[2] = molecular target: Myeloid Cell Leukemia 1(Mcl-1) (Homo sapiens, UniProt Q07820); test: Terbium labeled Mcl-1 HTRF binding assay with Cy5-labeled BIM BH3 peptide; conditions: read-out: Tb-MCL1 Ki; displacement of Cy5 Bim BH3 peptide; Ki=IC50/(1+[L]/Kd), [L]=8 nM, Kd=10 nM; 60 minutes at room temperature
Description: Terbium labeled Myeloid Cell Leukemia 1(Mcl-1) homogeneous time-resolved fluorescence (HTRF) binding assay utilizing the BIM BH3 peptide (H2N—(C/Cy5Mal) WIAQELRRIGDEFN-OH) as the binding partner for Mcl-1.
This assay evaluated inhibition of the BH3 domain: Mcl-1 interaction by measuring the displacement of Cy5-labeled BIM BH3 peptide (H2N—(C/Cy5Mal) WIAQELRRIGDEFN-OH) in the HTRF assay format.
The following assay and stock buffers were prepared for use in the assay: (a) Stock buffer: 10 mM Tris-HCl, pH=7.5+150 mM NaCl, filtered, sterilized, and stored at 4° C.; and (b) 1X assay buffer, where the following ingredients were added fresh to stock buffer: 2 mM dithiothreitol (DTT), 0.0025% Tween-20, 0.1 mg/mL bovine serum albumin (BSA). […]
The TR-FRET signal was read on an BMG PHERAStar FSX MicroPlate Reader at room temperature using the HTRF optic module (HTRF: excitation: 337 nm, light source: laser, emission A: 665 nm, emission B: 620 nm, integration start: 60 μs, integration time: […]).
The BMG PHERAStar FSX MicroPlate Reader was used to measure fluorescence intensity at two emission wavelengths—665 nm and 620 nm—and report relative fluorescence units (RFU) for both emissions, as well as a ratio of the emissions (665 nm/620 nm)*10,000. […]

| SMILES | AC50 [1] | Ki [2] |
| --- | --- | --- |
| COCCN(CCOC)C(=O)[C@H]1/C(F)=C/C[C@H](C)CS(=O)(NC(=O)c2cn(C)nc2OC)=NC(=O)c2ccc3c(c2)N(C[C@@H]2CCCN21)C[C@@]1(CCCc2cc(Cl)ccc21)CO3 (single isomer, unassigned) [Compound 89] | 214 nM | 0.036 nM |
| COCCN(CCOC)C(=O)[C@H]1/C(F)=C/C[C@H](C)CS(=O)(NC(=O)c2cn(C)nc2OC)=NC(=O)c2ccc3c(c2)N(C[C@@H]2CCCN21)C[C@@]1(CCCc2cc(Cl)ccc21)CO3 (single isomer, unassigned) [Compound 90] | 25.8 nM | 0.026 nM |
